{
  "source": "paper PMC8741604",
  "about": "(Translational Oncology, 2022)",
  "origin": "cited, not measured here",
  "target": "PD-L1",
  "details": "read-out: KD of PD-1 for PD-L1; natural partner PD-1; cited from earlier work",
  "data": [
    {"substance": "PD-1: natural binding partner of PD-L1, positive control", "values": [
      {"measurement": "Kd", "value": "~8", "unit": "µM"}
    ]}
  ]
}
